Results from article PMC11051159, “Green Synthesis of Gold Nanoparticles Using Liquiritin and Other Phenolics from Glycyrrhiza glabra and Their Anti-Inflammatory Activity” (Journal of Functional Biomaterials, 2024).

Columns and labels:
RAW 264.7 cells = test: Cell viability assay (WST-1); assay type: cell-based, murine; settings: for effect on cell viability (in words): 0–100 μg/mL
Method: The RAW 264.7 cells were seeded at 1 × 10^6 cells/mL in 96-well tissue culture-treated plates for cell viability and nitric oxide assays. The seeded cells were incubated under standard tissue culture conditions at 37 °C in a humidified atmosphere of 5% CO2 for approximately 24 h until the cells reached 70–80% confluence. The cells were subsequently exposed to the relevant AuNP conjugates, total extract, or compounds. After that, the cells were either left unstimulated or stimulated with 1 μg/mL lipopolysaccharide (LPS, from E. coli O111:B4, Sigma-Aldrich) to yield a final concentration range of 0–100 μg/mL of the appropriate treatment. The cells were then incubated overnight under standard tissue culture conditions.
The supernatants were removed after incubation, and cells were washed with phosphate-buffered saline (PBS, Lonza). Cell viability was assessed by adding 50 μL of a 1/10 dilution of 2-(4-iodophenyl)-3-(4-nitrophenyl)-5-(2,4-disulfophenyl)-2H-tetrazolium (WST-1, Roche, Basel, Switzerland) in complete DMEM medium to each well. Metabolically active cells convert the WST-1 reagent to a formazan that can be measured spectrophotometrically. Formazan formation was determined by reading the plate at 450 nm immediately after adding WST-1 and again after an incubation period of 1 h at 37 °C. The increase in absorbance is proportional to formazan formation and directly proportional to cell viability. The difference between the zero-absorbance reading and 1 hr incubation was used to calculate the percentage of cell viability. Cell viability was calculated as a percentage of the control using the below formula:(1) Cell viability as a % of Control=T1−T0/U1−U0×100 where T1 is the absorbance of the treated sample after 1 h, T0 is the absorbance of the treated at 0 h, U1 is the absorbance of the untreated sample after 1h, and U0 is the absorbance of the untreated sample at 0 h.

[1] = system: human epithelial cells (HT1080); design: method as in PMID 30618749; settings: up to 100 μM; cited from earlier work

isoliquiritin apioside [Comp. 4]
effect on cell viability (in words) (RAW 264.7 cells; RAW 264.7, absence of LPS): did not affect cell viability
effect on cell viability (in words) (RAW 264.7 cells; RAW 264.7, absence of LPS, listed as isoliquiritin apioside (4)): did not impact cell viability
effect on cell proliferation (in words) [1]: did not affect cell proliferation

liquiritin apioside [Comp. 5]
effect on cell viability (in words) (RAW 264.7 cells; RAW 264.7, presence of LPS): did not negatively impact cell viability
effect on cell viability (in words) (RAW 264.7 cells; RAW 264.7, presence of LPS, listed as Liquiritin apioside (5)): did not affect RAW cell proliferation
effect on cell viability (in words) (RAW 264.7 cells; RAW 264.7, presence of LPS, listed as liquiritin apioside (5)): did not hinder cell proliferation
concentration at which cell viability was significantly decreased (cytotoxic) (RAW 264.7 cells; RAW 264.7, presence of LPS, range tested 0–100 μg/mL): ≥ 6250 ng/mL
